We go through one molecule from publication PMC3625562, “Rapid Screening of Drug-Protein Binding Using High-Performance Affinity Chromatography with Columns Containing Immobilized Human Serum Albumin” (Journal of Analytical Methods in Chemistry, 2013).

Protein sequences, listed by entry. Tags and fused reporters are not part of them. Residues count along the entry.
UniProt P02768, 25-609 limits assumed: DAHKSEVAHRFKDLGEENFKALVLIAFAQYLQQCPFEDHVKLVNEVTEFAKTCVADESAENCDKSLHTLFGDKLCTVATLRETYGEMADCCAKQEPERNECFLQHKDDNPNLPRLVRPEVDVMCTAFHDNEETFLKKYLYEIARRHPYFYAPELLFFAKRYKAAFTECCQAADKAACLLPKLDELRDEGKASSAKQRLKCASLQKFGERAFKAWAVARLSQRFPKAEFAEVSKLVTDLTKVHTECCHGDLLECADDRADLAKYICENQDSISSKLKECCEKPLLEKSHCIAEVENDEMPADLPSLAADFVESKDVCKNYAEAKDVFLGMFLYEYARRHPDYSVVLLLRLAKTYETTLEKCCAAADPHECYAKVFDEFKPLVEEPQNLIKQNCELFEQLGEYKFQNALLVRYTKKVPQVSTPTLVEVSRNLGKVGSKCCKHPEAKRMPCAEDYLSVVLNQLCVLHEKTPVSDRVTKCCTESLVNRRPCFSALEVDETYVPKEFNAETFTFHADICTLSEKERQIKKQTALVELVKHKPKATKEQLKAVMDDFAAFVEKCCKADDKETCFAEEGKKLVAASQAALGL

In one data set the test system is plasma proteins. Description: PPB experiment by ultrafiltration. To be noted: plasma, 10, 40, 200, 100, 2000, 100 ng/mL for A, B, C, D, E, F; 37°C 30 min; Microcon YM-30, triplicates.
For data set [1], the target named is immobilized human serum albumin (HSA) (Homo sapiens, UniProt P02768). In words: Drug-protein binding screening by HPLC on immobilized HSA column (HSA-HPLC). To be noted: PPB class from retention time on HSA column (cut-off 4.55 min) and pKa.

“And” between values parts separate entries of the source, which are not always exact repeats. Equal values may be shown once.

In the case of `COC12C=CC3(CC1C(C)(O)CCc1cccs1)C1Cc4ccc(O)c5c4C3(CCN1CC1CC1)C2O5` (centres unmarked), the PPB by ultrafiltration in the data set with plasma proteins was 94.86 ± 0.56% and 95.0%. The “Screening result by HSA-HPLC (PPB)” value in data set [1] was over 90%.
